From ChEMBL document CHEMBL5236611, “Development of SOS1 Inhibitor-Based Degraders to Target KRAS-Mutant Colorectal Cancer” (J Med Chem, 2022)

Protein sequences, listed by entry. Tags and fused reporters are not part of them. Lines headed by an entry give the natural chain unless they say otherwise; changes in a name come on top.
UniProt Q96SW2: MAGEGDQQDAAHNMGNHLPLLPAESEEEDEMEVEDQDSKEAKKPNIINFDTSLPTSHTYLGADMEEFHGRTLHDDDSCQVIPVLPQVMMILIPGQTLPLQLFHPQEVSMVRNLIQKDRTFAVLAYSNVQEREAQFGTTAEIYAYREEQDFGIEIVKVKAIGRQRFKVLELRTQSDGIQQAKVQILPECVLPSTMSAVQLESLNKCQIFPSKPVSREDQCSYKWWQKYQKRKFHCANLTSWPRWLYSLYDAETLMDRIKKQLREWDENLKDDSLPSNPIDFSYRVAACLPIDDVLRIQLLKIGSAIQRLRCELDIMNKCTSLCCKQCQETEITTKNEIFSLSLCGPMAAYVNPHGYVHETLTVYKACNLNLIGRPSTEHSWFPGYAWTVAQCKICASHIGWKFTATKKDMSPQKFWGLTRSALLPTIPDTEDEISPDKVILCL

Assays:
Type in all cases: cell-based
[1] = molecular target: T1, Protein cereblon/Son of sevenless homolog 1 (Homo sapiens, UniProt Q07889+Q96SW2); test: PROTAC activity at SOS1/Cereblon in human SW620 cells assessed as ratio of protein degradation normalized to DMSO at 1 uM measured after 6 hrs by immunoblotting analysis
Outline: (§1)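 SW620 cells in McCoy's 5A/10% FBS, 37 °C, 5% CO2, treated 6 h. Lysed in RIPA with protease/phosphatase inhibitors, ~40 μg protein per lane on SDS-PAGE and immunoblotted. SOS1 band normalized to DMSO control (1.0 = no degradation).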

[2] = molecular target: T1, Protein cereblon/Son of sevenless homolog 1; test: PROTAC activity at SOS1/Cereblon in human SW620 cells assessed as ratio of protein degradation normalized to DMSO at 0.1 uM measured after 6 hrs by immunoblotting analysis; outline: as §1
[3] = molecular target: T1, Protein cereblon/Son of sevenless homolog 1; test: PROTAC activity at SOS1/Cereblon in human SW620 cells assessed as ratio of protein degradation normalized to DMSO at 10 uM measured after 6 hrs by immunoblotting analysis; outline: as §1

COc1cc2c(N[C@H](C)c3cc(N)cc(C(F)(F)F)c3)nc(C)nc2cc1OCC(=O)Nc1cccc2c1CN(C1CCC(=O)NC1=O)C2=O (stereo partly drawn)
Ratio [1]: 0.365 | Ratio [2]: 1.07 | Ratio [3]: 0.36
